Assay results as given in US7632812B2, “Methods to stimulate insulin production by pancreatic β-cells” (Massachusetts General Hospital, priority 1999, dated 2009).

Tests used:
rat insulin I promoter = experiment: Rat insulin I promoter luciferase reporter (-410 INS-luc) in transfected INS-1 cells; type: cell-based; details: INS-1 cells cotransfected with pShh and -410 INS-luc; FIG. 19
[1] = test system: -4.6 kb mouse IDX-1 promoter; experiment: Mouse IDX-1 promoter luciferase reporter (-4.6IDX-pGL3) in transfected INS-1 cells; type: cell-based, rat; details: 10 μM, 4 μg pSHH, FIG. 21

SMILES: CC1=C2C[C@H]3[C@@H](CC=C4C[C@@H](O)CC[C@@]43C)[C@@H]2CC[C@]12O[C@@H]1C[C@H](C)CN[C@H]1[C@H]2C [cyclopamine]
- effect on Shh-mediated activation of the insulin promoter (rat insulin I promoter): inhibit the Shh-mediated activation of the insulin promoter
- effect on Shh-mediated activation of the IDX-1 promoter [1]: decreases Shh-mediated activation of the IDX-1 promoter
